Four substances from PMC8578508 can be followed below.

In assay [1] the target is BRD4^1–579, phosphorylated in vitro by CK2 (human) (UniProt O60885). Description: SEC-MALS + AUC; SEC-MALS on Superose 6 in 10 mM Tris-HCl pH 7.5 with 250 mM or 1 M NaCl; AUC sedimentation velocity and equilibrium in the same buffer, samples between 0.1 µM and 15 μM; oligomeric state of the protein alone. For orientation: In gel filtration, larger molecules generally elute earlier.

The target in assay [2] is BRD4^1–579, purified from insect cells (phosphorylated) (human) (UniProt O60885). The description is as above.
The target of assay [3] is BRD4^1–722, phosphorylated in vitro by CK2 (human) (UniProt O60885). The experiment in a line: SEC-MALS; BRD4^1–722 WT, 7A and 6A produced in E. coli and phosphorylated by CK2; Superose 6, 10 mM Tris-HCl pH 7.5.
The target is the same in assay [4]. Description: SEC-MALS + AUC; SEC-MALS on Superose 6 in 10 mM Tris-HCl pH 7.5 with 250 mM or 1 M NaCl; AUC sedimentation velocity and equilibrium in the same buffer, samples between 0.1 µM and 15 μM; oligomeric state of the protein alone.
The target of assay [5] is BRD4^1–722, purified from insect cells (phosphorylated) (human) (UniProt O60885). Described as above.

What is called stoichiometry N is a count of units in the complex or per binding partner. As to “BRD4^1–579, phosphorylated in vitro by CK2 (from UniProt O60885 1-579) (domain or fragment)”, in assay [1], the stoichiometry N was determined as 2. Take “BRD4^1–579, purified from insect cells (phosphorylated) (from UniProt O60885 1-579) (domain or fragment)”: the stoichiometry N in assay [2] was determined as 2. For the substance “BRD4^1–722, phosphorylated in vitro by CK2 (from UniProt O60885-2 1-722) (natural protein)”, the stoichiometry N in assay [3] and in assay [4] was 2 each time.

Consider “BRD4^1–722, purified from insect cells (phosphorylated) (from UniProt O60885-2 1-722) (natural protein)”, for which the stoichiometry N in assay [5] came out at 2.
